For this data set, the target named is CYP3A5 (Homo sapiens, UniProt P20815). The data set can be described thus: Steady-state metabolism of R- and S-warfarin by recombinant CYP3A5.
Setting [1] is: 10-hydroxywarfarin formation, 37° C, pH 7.4.

Sequences of proteins named here, by UniProt entry; tags and fusion partners are left off.
UniProt P20815, whole entry: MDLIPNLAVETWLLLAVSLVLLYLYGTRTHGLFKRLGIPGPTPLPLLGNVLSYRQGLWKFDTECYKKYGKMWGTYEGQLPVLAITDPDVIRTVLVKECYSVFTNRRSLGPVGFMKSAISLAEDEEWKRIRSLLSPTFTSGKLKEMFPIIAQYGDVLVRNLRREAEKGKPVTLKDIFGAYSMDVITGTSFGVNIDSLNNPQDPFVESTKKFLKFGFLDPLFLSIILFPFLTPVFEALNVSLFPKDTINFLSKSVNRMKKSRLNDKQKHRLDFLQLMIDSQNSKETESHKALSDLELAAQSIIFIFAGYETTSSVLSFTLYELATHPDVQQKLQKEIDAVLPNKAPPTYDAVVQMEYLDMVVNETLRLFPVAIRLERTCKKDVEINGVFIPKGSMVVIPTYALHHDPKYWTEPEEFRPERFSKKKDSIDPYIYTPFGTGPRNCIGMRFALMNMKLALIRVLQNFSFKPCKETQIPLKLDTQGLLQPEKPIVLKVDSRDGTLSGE

Molecules are shown by their SMILES.

As usually defined, the Km is the substrate concentration at which the rate is half of its maximum.

Regarding `CC(=O)C[C@H](c1ccccc1)c1c(O)c2ccccc2oc1=O` [R-warfarin, (R) warfarin], the Km (4′-hydroxywarfarin formation) is 244 µM and the Km (10-hydroxywarfarin formation) turned out to be 129 µM. Also, the Vmax (4′-hydroxywarfarin formation) is on record as 108 pmol product/min/nmol P450 and the Vmax under setting [1] was 263 pmol product/min/nmol P450.
The like results for `CC(=O)C[C@@H](c1ccccc1)c1c(O)c2ccccc2oc1=O` [S-warfarin, (S) warfarin] were, in that order, 672 µM, 318 µM, 157 pmol product/min/nmol P450 and 67 pmol product/min/nmol P450.

Values taken from patent US20100273203A1 (priority 2009, published 2010).
